# Measured affinities in a library of Ab-95 light chain variants

All variants were tested on one target, the spike HR2 peptide PDVDLGDISGINAS (SARS-CoV-2).

Parent scFv Ab-95: VH joined to VL by a 15-residue (Gly4Ser)3 linker. Changes lie in the light chain CDRs alone.
VH: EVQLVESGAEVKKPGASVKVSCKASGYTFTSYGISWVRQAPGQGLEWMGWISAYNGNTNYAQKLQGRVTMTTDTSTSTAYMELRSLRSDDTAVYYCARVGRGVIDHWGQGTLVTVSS
VL: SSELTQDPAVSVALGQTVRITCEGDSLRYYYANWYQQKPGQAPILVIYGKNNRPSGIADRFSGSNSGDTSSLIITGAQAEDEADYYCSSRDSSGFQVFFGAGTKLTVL

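Library AAYL52 holds single substitutions and randomly drawn double and triple substitutions in the CDRs. AlphaSeq pools MATa yeast showing the antibodies with MATalpha yeast showing the peptide. Binding brings cells together so that they mate, and sequencing counts the barcode pairs among the diploids. Scores were corrected for input abundance and mapped to Kd with protein pairs of known affinity run in the same pool. Each pool was mated in three replicate cultures.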

Each variant's VL is given in full.
Affinities are written as log10 Kd with Kd in nM; a lower number is a better binder.
A mean of the replicates is given; it leaves out those without a signal.
"nd" means that the variant was in the library but no mating with the target was seen in that replicate; the authors take this as a sign of poor binding, and no number exists.
Nonspecific signal, from three strains lacking the peptide, appeared in 28% of pairings of library AAYL52, centred on 3.91 (5% of these signals below 2.90); values are not corrected for it. For each scFv, signals with the empty controls are counted beside the result.

With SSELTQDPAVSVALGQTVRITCEGDILLYYYANWYQQKPGQAPILVIYGKNNRPSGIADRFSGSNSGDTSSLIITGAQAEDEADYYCSSRDSSHFQVFFGAGTKLTVL the result was 3.75, nd, nd (controls 4 of 9).
With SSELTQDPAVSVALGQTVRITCEGDSLRYYYANWYQQKPGQAPILVIYGKNNRPRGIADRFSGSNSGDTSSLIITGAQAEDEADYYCSSRLSSGFQVFFGAGTKLTVL the result was 4.28, nd, nd (controls 0 of 9).
With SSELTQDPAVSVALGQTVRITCEGDSLRYYYANWYQQKPGQAPILVIYGKTNRPSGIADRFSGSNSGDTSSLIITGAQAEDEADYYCSSRDSRGFWVFFGAGTKLTVL the result was nd, 4.57, nd (controls 1 of 9).
With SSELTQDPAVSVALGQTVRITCEGDSLRYYYANWYQQKPGQAPILVIYGKNNRPSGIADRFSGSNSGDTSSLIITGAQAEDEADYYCKSRDHSGNQVFFGAGTKLTVL the result was 3.06, 3.14, 2.71 (mean 2.97; controls 1 of 9).
With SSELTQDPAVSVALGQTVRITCEGDSLRYYYANWYQQKPGQAPILVIYGKPKRKSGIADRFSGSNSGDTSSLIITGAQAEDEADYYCSSRDSSGFQVFFGAGTKLTVL the result was 4.13, 5.47, nd (mean 4.80; controls 2 of 9).
With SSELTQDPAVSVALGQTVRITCEGDALRPYYANWYQQKPGQAPILVIYGKNNRPSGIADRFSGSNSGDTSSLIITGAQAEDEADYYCSNRDSSGFQVFFGAGTKLTVL the result was 3.10, 2.67, 2.32 (mean 2.70; controls 5 of 9).
With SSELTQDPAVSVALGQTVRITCEGDPLLYYYANWYQQKPGQAPILVIYGKNNRPSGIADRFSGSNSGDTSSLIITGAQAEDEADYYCSCRDSSGFQVFFGAGTKLTVL the result was 2.42, 2.42, 2.41 (mean 2.42; controls 3 of 9).
With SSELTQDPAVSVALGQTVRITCEGDFLRYYYAVWYQQKPGQAPILVIYGKNNIPSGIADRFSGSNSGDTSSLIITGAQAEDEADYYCSSRDSSGFQVFFGAGTKLTVL the result was 2.96, nd, nd (controls 5 of 9).
With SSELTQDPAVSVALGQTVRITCEGDSIRYYYANWYQQKPGQAPILVIYGKNNEPSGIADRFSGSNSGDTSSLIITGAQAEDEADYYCSSRMSSGFQVFFGAGTKLTVL the result was nd, nd, nd (controls 3 of 9).
With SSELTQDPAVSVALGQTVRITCEGDSLRYYYANWYQQKPGQAPILVIYGKGNRPSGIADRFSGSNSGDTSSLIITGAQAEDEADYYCSSRDSSGFQIVFGAGTKLTVL the result was nd, 3.24, 4.06 (mean 3.65; controls 1 of 9).
With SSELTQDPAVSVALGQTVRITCWGDSLRYYYKNWYQQKPGQAPILVIYGKNNRPSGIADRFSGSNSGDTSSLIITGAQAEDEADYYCSSRDSSGDQVFFGAGTKLTVL the result was 4.62, 5.06, nd (mean 4.84; controls 2 of 9).
With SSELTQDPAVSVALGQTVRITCEGDSLRYYEANWYQQKPGQAPILVIYGKNNRLSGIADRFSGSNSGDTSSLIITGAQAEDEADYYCSSRDSSGFQVFFGAGTKLTVL the result was 1.56, 1.43, 1.05 (mean 1.35; controls 6 of 9).
With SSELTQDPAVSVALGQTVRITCEGDSARYYYANWYQQKPGQAPILVIYIKNNRPSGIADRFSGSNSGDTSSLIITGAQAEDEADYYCSSRDSSGFQVWFGAGTKLTVL the result was nd, 3.80, nd (controls 0 of 9).
With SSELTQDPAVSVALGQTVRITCEGDSLRHYYANWYQQKPGQAPILVIYGKNDRPSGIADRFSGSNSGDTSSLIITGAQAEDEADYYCSSRDSSGFQVFFGAGTKLTVL the result was 1.89, 1.81, 1.43 (mean 1.71; controls 3 of 9).
With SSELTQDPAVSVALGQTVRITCEEDSLRYEYANWYQQKPGQAPILVIYGKNNRPEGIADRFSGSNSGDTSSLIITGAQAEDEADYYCSSRDSSGFQVFFGAGTKLTVL the result was 3.09, 3.26, 2.65 (mean 3.00; controls 6 of 9).
With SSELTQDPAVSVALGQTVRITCEGDSLRYYLANWYQQKPGQAPILVIYGKNNRPSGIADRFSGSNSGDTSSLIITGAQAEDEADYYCSSRDSSGFQEFFGAGTKLTVL the result was 4.18, nd, nd (controls 1 of 9).
With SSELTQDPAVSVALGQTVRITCEGDSLSYYYANWYQQKPGQAPILVIYGKNNRPSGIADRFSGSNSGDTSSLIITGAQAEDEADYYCSSRDSQGFQVFFGAGTKLTVL the result was 2.85, 2.64, 2.87 (mean 2.79; controls 2 of 9).

The opening 2 entries, copied out:

Variant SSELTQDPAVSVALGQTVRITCEGDILLYYYANWYQQKPGQAPILVIYGKNNRPSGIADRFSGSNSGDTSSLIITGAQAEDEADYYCSSRDSSHFQVFFGAGTKLTVL gave 3.75, nd, nd (controls 4 of 9).
Variant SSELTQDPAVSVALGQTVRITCEGDSLRYYYANWYQQKPGQAPILVIYGKNNRPRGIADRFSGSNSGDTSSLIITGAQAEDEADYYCSSRLSSGFQVFFGAGTKLTVL gave 4.28, nd, nd (controls 0 of 9).

Values reported by Engelhart et al. 2022, doi:10.1038/s41597-022-01779-4 (FLAb copy).